The record followed here is patent publication US20100286082A1, “RIBOSWITCHES AND METHODS AND COMPOSITIONS FOR USE OF AND WITH RIBOSWITCHES” (Yale University, priority 2007, published 2010).

This experiment concerns 17-90 RNA mutant U41. Put plainly: In-line probing of mutant (U41) 17-90 RNA. It counts as binding, Streptococcus pneumoniae R6. As to conditions: compared with wild type.

Regarding `Nc1nc2nc[nH]c2c(=O)[nH]1` [guanine], the “binding by the U41 mutant” value is “no longer detectable”.
